Values after ≈ are worked out from the molar mass of the structure shown.
How the values were obtained:
[1] = test system: Escherichia coli (E. coli) ATCC 25922; assay type: cell-based; conditions: NB medium, 37 °C, 18 h, three independent measurements
Method: (§1) MIC was determined using the broth microdilution method with minor modification. In brief, bacteria (S. aureus ATCC 43300, E. faecalis ATCC 29212, E. coli ATCC 25922, P. aeruginosa ATCC 27853, L. monocytogenes CVCC 3764, B. cereus CVCC 4101, S. Castellani CGMCC 1.1869, and the multidrug-resistant E. coli strain) were cultured in nutrient broth (NB) medium (Macklin, Shanghai, China) to the logarithmic phase and diluted to 1 × 10^6 colony forming units (CFUs)/mL. The MDLs were dissolved to a final concentration of 256~0.25 μg/mL in NB medium using two-fold dilutions. A total of 50 μL of different concentrations of the MDL solutions and an equal volume of bacterial suspension were added to a 96-well plate, which was then incubated at 37 °C for 18 h. The minimum concentrations of the MDLs with no visible growth of bacteria were defined as the corresponding MICs. Media containing bacteria without the MDLs were set as the negative control. Each measurement was performed independently three times.

[2] = test system: Staphylococcus aureus (S. aureus) ATCC 43300; assay type: cell-based; conditions: NB medium, 37 °C, 18 h, three independent measurements
Method: as §1

## CC[C@H](C)[C@H](NC(=O)CN)C(=O)NCC(=O)N[C@@H](C)C(=O)N[C@H](C(=O)N[C@@H](CC(C)C)C(=O)N[C@@H](CCCCN)C(=O)N[C@H](C(=O)N[C@@H](CC(C)C)C(=O)N[C@H](C(=O)N[C@H](C(=O)NCC(=O)N[C@@H](CC(C)C)C(=O)N1CCC[C@H]1C(=O)N[C@@H](C)C(=O)N[C@@H](CC(C)C)C(=O)N[C@H](C(=O)N[C@@H](CO)C(=O)N[C@@H](Cc1c[nH]c2ccccc12)C(=O)N[C@H](C(=O)N[C@@H](CCCCN)C(=O)N[C@@H](CCCNC(=N)N)C(=O)N[C@@H](CCCCN)C(=O)N[C@@H](CCCNC(=N)N)C(=O)N[C@@H](CCC(N)=O)C(=O)N[C@@H](CCC(N)=O)C(N)=O)[C@@H](C)CC)[C@@H](C)CC)[C@@H](C)O)[C@@H](C)O)C(C)C)C(C)C [Mel, Melittin]
[1]
  MIC: 32 µg/mL (≈ 11.2 µM)
[2]
  MIC: 8 µg/mL (≈ 2.81 µM)
